High-throughput results from PubChem.
Yeast UUG start: alters start codon recognition fidelity in yeast. S. cerevisiae UUG-firefly luciferase reporter, luminescence/redox ratio. activity score, % at 18.7 µM. 0.13% of 350,000 active. AID 602363;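 active = replicate mean at a twofold rise or more, about +100% in these data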;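 also: firefly luciferase made from a UUG start codon reports start codon fidelity; reporter light over untreated wells divided by growth signal over untreated wells; some hits fall short of that in this replicate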
PglD inh: C. jejuni PglD acetyltransferase inhibitors, primary screen, biochemical, DTNB colorimetric, single point. hit rate 0.098% among 360,000. purified PglD enzyme, DTNB colorimetric CoA detection. inhibition, % at 12.5 µM. AID 602405, 2012. UDP-N-acetylbacillosamine N-acetyltransferase PglD (Campylobacter jejuni); in the data active = inhibition above about 16%, passing the limit was not always enough
CASP6 VEID inh: human caspase-6 inhibitors, primary screen, biochemical, VEID-R110 fluorescence, single point, set 2 | purified caspase-6, Z-VEID-R110 cleavage fluorescence | inhibition, % at 12.5 µM | AID 686996, 2013 | hit rate 0.53% among 350,000 | P55212;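 active = mean inhibition across replicates at least about 35%, with every replicate also reaching that limit, limit read from the data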;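 note: 0% = median of neutral control wells and 100% = no fluorescence left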
RAD52 anneal inh: RAD52 DNA annealing inhibitors, primary screen, biochemical, FRET, single point, set 2. DNA repair protein RAD52 homolog (Homo sapiens), P43351. recombinant RAD52 DNA annealing, FRET fluorescence. inhibition, % at 18.7 µM. hit rate 0.46% among 360,000;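 active = every replicate showing at least 50% inhibition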
RAD54 branch: inhibitors of human RAD54 branch migration, primary screen, biochemical, fluorescence, single point | inhibition, % at 10.4 µM | hit rate 0.14% among 360,000 | DNA repair and recombination protein RAD54-like (Homo sapiens), Q92698 | RAD54 Holliday junction branch migration, FAM/BHQ fluorescence | AID 602329, 2012;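 active = mean normalized replicate activity at least 40 and at least half of replicates scoring 40 or more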;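 note: 0% = median of neutral control wells and 100% = median of positive control wells; inhibitors cause a drop in the FAM fluorescence signal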
INS-1E GSIS act: GLuc luminescence reporter in INS-1E cells, primary screen for activators of glucose-dependent secretion of insulin | INS-1E GLuc reporter insulin secretion, 2-3 h | hit rate 0.61% among 370,000 | activation, % at 16.6 µM;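 active = lowest replicate activation of at least 40%, so every replicate reaches that level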;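 note: 0% = median of neutral control wells and 100% = median of IBMX positive control wells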
An asterisk follows results filed as active; · = no result given; ! = not confirmed by another sample. Shown are actives, neighbours in structure and some others; about 1.5% of the full set was active somewhere.

SMILES | Yeast UUG start | PglD inh | CASP6 VEID inh | RAD52 anneal inh | RAD54 branch | INS-1E GSIS act
CCCCCC(=O)N1C[C@@H](n2cc(C3CC3)nn2)[C@H](O)C[C@@H]1c1ccc(Cl)cc1 | -12.5 | 0.8 | 1.5 | -2.6 | 4.9 | -5.1
COc1cccc(CN2C[C@@H]3N[C@H](C2)C3c2ccc(-c3ccccc3F)cc2)c1 (some centres not stated) | · | · | 4.5 | 64.0*! | · | 9.2
CC(=O)c1ccc(N2CCN(C(=S)Nc3ccc(Oc4ccccc4)cc3)CC2)cc1 | · | · | 11.4 | -20.8 | · | -2.5
CN1CCN(c2ccc(NC(=O)c3ccc(Oc4ccccc4)cc3)cc2)CC1 | -4.6 | -0.8 | -59.7 | 12.8 | -7.9 | 50.3*
Cc1nn(-c2ccccc2)c(C)c1N | -13.3 | 5.6 | -5.2 | -3.5 | 4.5 | -1.3
Cc1c(O)cnc2nn(-c3ccccc3)c(=N)n12 | · | · | -0.3 | -11.9 | · | 41.7*
CC(Sc1nc(C(F)(F)F)nc2ccccc12)C(=O)NC1CCCC1 (configuration not stated) | -16.7 | 4.3 | -1.2 | -1.3 | 2.7 | 22.9
[O-][n+]1c(/C=C/c2ccccc2)ccc2ccccc21 | -24.9 | -9.3 | 0.7 | -28.3 | 2.5 | 3.9
[O-][n+]1c2ccccc2[n+]([O-])c2cc(O)ccc21 | 5.2 | -0.9 | 67.8* | -6.1 | -4.4 | 14.0
C=C[C@]1(C)C=C2CC[C@H]3[C@@](C)(CCC[C@@]3(C)C(=O)O)[C@@H]2CC1 | -13.8 | 4.7 | · | · | -5.4 | ·
C=C[C@]1(C)C=C2C(=O)[C@@]3(O)OC(=O)[C@@]4(CCCC(C)(C)[C@H]34)[C@@]2(O)CC1 | -76.2 | -0.8 | 37.4* | 9.6 | 0.9 | -21.3
COCC(=O)N1CC2(C1)CN(C(=O)COC)[C@H](CO)c1c2c2ccc(OC)cc2n1C | · | · | -1.0 | 5.6 | · | 5.9
COc1cc([C@@H]2OC[C@@H]3[C@H]2CO[C@@H]3c2ccc3c(c2)OCO3)ccc1O | -16.7 | 3.2 | 3.2 | 1.1 | 2.1 | -2.9
COc1cc(CC2COC(c3ccc(O)c(OC)c3)C2COC(C)=O)ccc1O (configuration not stated) | -0.6 | -0.8 | 57.6* | -10.3 | 16.0 | -4.4
O=C(Nc1nnc(-c2ccc(Cl)cc2)o1)NC1CCCCC1 | -20.1 | -0.7 | · | · | 1.1 | 59.0*
S=C(Nc1ccc2nsnc2c1)N1CCCCC1 | · | · | 47.2* | -5.2 | · | -23.2
S=C(Nc1ccc(Cl)c(Cl)c1)N1CCCC1 | -15.9 | -10.0 | 0.5 | -13.5 | 7.0 | -10.1
O=C(CNC(=O)c1cccc(F)c1)OCc1cc(=O)n2cc(Br)ccc2n1 | 4.5 | 5.3 | 1.7 | -16.0 | -14.9 | 10.0
Cc1ccccc1-c1ccc([C@H]2[C@H](CO)N3CCCCN(S(=O)(=O)Cc4ccccc4)C[C@@H]23)cc1 | 3.1 | 3.1 | -2.1 | 55.5* | 14.1 | -18.8
Cc1ccccc1-c1ccc([C@@H]2[C@@H](CO)N3CCCCN(S(=O)(=O)Cc4ccccc4)C[C@H]23)cc1 | -0.3 | -0.9 | -3.9 | 62.8* | 2.6 | -5.0
CCS(=O)(=O)N1CCCCN2[C@H](C1)[C@@H](c1ccc(-c3ccccc3C)cc1)[C@@H]2CO | 1.4 | 0.4 | 2.6 | -19.5 | -1.4 | 0.6
O=S(=O)(c1ccc(NC(=S)N/N=C/c2ccc(O)c(O)c2)cc1)N1CCOCC1 | -34.9 | -1.5 | 40.0* | -12.1 | 2.9 | -15.9
N#Cc1ccc(/C=N/NC(=S)Nc2ccc(S(=O)(=O)N3CCOCC3)cc2)cc1 | -13.2 | 0.7 | -2.8 | -22.7 | -13.4 | 13.5
Cn1cnnc1SCCOc1ccc(Cl)cc1 | · | · | 0.1 | -1.1 | · | 0.8
NC1=CC(=O)C(=O)c2ccccc21 | -11.2 | -2.3 | 40.9* | -30.4 | -7.0 | 2.4
Nc1ccc(O)c2c1C(=O)c1ccccc1C2=O | -10.7 | -3.8 | 12.8 | -16.0 | 11.7 | ·
COC(=O)N1CCCCC1c1cc(C(=O)NCc2ccc(Cl)c(Cl)c2)no1 (configuration not stated) | -7.6 | -3.7 | -1.0 | -14.7 | 1.4 | 73.2*

A section of the results above:
SMILES | Yeast UUG start | PglD inh | CASP6 VEID inh | RAD52 anneal inh | RAD54 branch | INS-1E GSIS act
S=C(Nc1ccc2nsnc2c1)N1CCCCC1 | · | · | 47.2* | -5.2 | · | -23.2
S=C(Nc1ccc(Cl)c(Cl)c1)N1CCCC1 | -15.9 | -10.0 | 0.5 | -13.5 | 7.0 | -10.1
O=C(CNC(=O)c1cccc(F)c1)OCc1cc(=O)n2cc(Br)ccc2n1 | 4.5 | 5.3 | 1.7 | -16.0 | -14.9 | 10.0
